Apparent affinities of Ab-95 variants for a coronavirus HR2 peptide

Target peptide (SARS-CoV-2 spike, HR2 region): PDVDLGDISGINAS

Parent scFv Ab-95: VH joined to VL by the linker GGGGSGGGGSGGGGS. Changes lie in the light chain CDRs alone.
VH: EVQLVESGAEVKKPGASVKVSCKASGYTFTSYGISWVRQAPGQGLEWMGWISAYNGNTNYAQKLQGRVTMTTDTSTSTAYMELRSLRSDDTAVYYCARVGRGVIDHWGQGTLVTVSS
VL: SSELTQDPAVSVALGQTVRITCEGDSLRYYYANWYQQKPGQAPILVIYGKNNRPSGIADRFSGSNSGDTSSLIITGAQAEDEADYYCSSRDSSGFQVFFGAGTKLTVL

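The starting antibody came from a phage panning campaign against this peptide. The library (AAYL52) carries one to three amino acid substitutions per variant, with no insertions or deletions. Affinity was read by AlphaSeq, a pooled yeast mating assay with surface-displayed partners. Pairs that bind mate more often; barcode pairs of the diploids are counted by sequencing. Read counts were normalised to the haploid input and turned into Kd by a linear fit to BCL2-family pairs of known affinity, for each replicate. Each pool was mated in three replicate cultures.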

Each variant is given by its three light chain CDRs, as the data file delimits them; those of the parent are EGDSLRYYYAN, GKNNRPS, SSRDSSGFQVF.
The read-out is the apparent dissociation constant on a log10 scale (nM): the lower, the stronger.
The mean shown is taken over the replicates in which the pair was detected.
"no signal" marks a missing value. The strain was present, yet no cells mated with the target were sequenced in any replicate, which points to weak or no binding.
In this assay the parent's reference entry averaged 2.31; its copy inside this library read 2.25.

| CDR-L1 | CDR-L2 | CDR-L3 | mean, log10 nM | detected |
|---|---|---|---|---|
| EGDSLVYYYAN | TKNNRPS | SRRDSSGFQVF | 5.26 | 1/3 |
| EGDSLRYYYAN | GKNCRPS | SSDDSSGFQVF | 3.49 | 2/3 |
| EGDSLRYYYAN | GKINRPS | SVRDSSNFQVF | 3.91 | 1/3 |
| EGDSLRYYYAN | GKNFRPS | SSRDSSGFEYF | 3.42 | 2/3 |
| EGDSLRTYRAW | GKNNRPS | SSRDSSGFQVF | 3.26 | 3/3 |
| EGDSLRYYYAH | GKNNRPS | KIRDSSGFQVF | 3.13 | 1/3 |
| RGDSLRYYYAN | GKNNRPS | SSRDSSGMQVF | 2.31 | 3/3 |
| EGDSLGYYYAN | GKNNRPS | SSYDQSGFQVF | no signal | 0/3 |
| EGDSKRYYYNN | GKNNRPS | SSRDSSGFQVD | 3.87 | 1/3 |
| EGASLRYYYLN | GKNNRPS | SSRDSSGMQVF | 3.62 | 3/3 |
| EGVSLRYYTAN | GKNNRPS | SSRDSCGFQVF | 2.52 | 3/3 |
| EGKSLRYYYAN | DKFNRPS | SSRDSSGFQVF | 4.16 | 3/3 |
| EGDSLRYYYAN | GKNNRPP | SSWDSSGFNVF | 3.61 | 2/3 |
| EGDSLRYSYAN | GKNNRPS | SSRDSFGFQVF | 2.49 | 3/3 |
| EVDSLRYYYFN | GKNNRPF | SSRDSSGFQVF | 4.10 | 2/3 |
| EGDSMRYYYAT | GKNNRPS | SSRDSWGFQVF | no signal | 0/3 |
| EGRSLRYYYAN | GKNNRPY | SSRDSSGFLVF | 3.19 | 3/3 |
| EGDSLRYYYVM | GKNNRPS | SGRDSSGFQVF | 4.75 | 1/3 |
| EQDSLRYWYAN | GKNNRPS | SSRDSSGFQVW | 3.27 | 3/3 |
| EGDSLRYYYAN | TKNNHPS | SSRDSSAFQVF | 4.23 | 1/3 |
| EGDSLRYYYAN | GKNNRPS | SSVDSSGNPVF | 4.48 | 1/3 |
| EGDSLRYYYAN | GKNNRVS | SSVDSSGFQVW | no signal | 0/3 |
| EGDSLPYYRAN | GKNNRPS | SSRDGSGFQVF | 2.98 | 3/3 |
| CGDKLRYYYAN | GKNNRPS | SSRDSIGFQVF | 2.62 | 3/3 |
| EGDSLRYYYAN | GKNNRPT | SNRDTSGFQVF | 2.98 | 3/3 |
| EGDSLRYYYAN | GKNNRPS | SSQDDSGFWVF | 2.89 | 3/3 |
| EGDSLRYYYAN | GKNNFPS | ISRDSSGFQTF | 3.58 | 1/3 |
| EGDSLVYYYAN | GKNWRPS | SSRDSSGFQVF | 2.65 | 3/3 |
| EMDSARYAYAN | GKNNRPS | SSRDSSGFQVF | 1.56 | 3/3 |
| EGHSLRYYYAD | GKNNRPS | SSRDSSGFGVF | 4.39 | 2/3 |
| EGDSLRAYYAN | GKNPRPS | SSRDSWGFQVF | 3.91 | 3/3 |
| EGDSLRYYYAN | GKNNRPS | YSRASSGQQVF | 2.97 | 1/3 |
| EGDSLRYYYAE | GKNNRDS | SSRDSSGFQVF | no signal | 0/3 |
| EGDKLRYYYAN | GKNMRPS | SSRDSSGFSVF | 4.15 | 1/3 |
| VGDSLRYYYAN | GKNDRPS | SSRDSSGFQVF | 2.30 | 3/3 |
| EGDSLRYYYMN | GKNNFPS | SSRDSSPFQVF | 5.47 | 1/3 |
| EGDSGRYYYAN | GKNNRPS | SWRDSSGFQQF | 3.06 | 2/3 |
| EGDSLRYYYAT | GKNNCPS | SSSDSSGFQVF | 4.42 | 2/3 |
| SGDSLRYNWAN | GKNNRPS | SSRDSSGFQVF | 0.43 | 3/3 |
| EGDSLRYYYAN | GENNRPS | SSRDSSGFSVF | 2.06 | 3/3 |
| EADSLRHYYAN | GKNNRPS | SSDDSSGFQVF | 3.31 | 2/3 |
| EGDSLRYYYAN | GKNNRES | SSRDFSGFQVF | 3.17 | 3/3 |
| EPDSLSYYYAN | GKNNRPS | SSRDSSGFWVF | 4.14 | 2/3 |
| EGHSLRYYYAN | GKNNRPI | SSKDSSGFQVF | 4.12 | 2/3 |
| EGDPLRYYYAN | GKNGSPS | SSRDSSGFQVF | 3.91 | 2/3 |
| EGDSLRYYYAN | GRNNRHS | SSRDSSGFQVM | 3.13 | 3/3 |
| EGDQLRYYYDN | GFNNRPS | SSRDSSGFQVF | 3.99 | 2/3 |
| EGDTLRYYYAN | GKNNRPS | SSCSSSGFQVF | 4.87 | 1/3 |
| EGDSLRVYYAN | GKNNRMS | SVRDSSGFQVF | 4.14 | 2/3 |

The closing 5 entries, repeated:

CDR-L1,CDR-L2,CDR-L3,"mean, log10 nM",detected
EGDPLRYYYAN,GKNGSPS,SSRDSSGFQVF,3.91,2/3
EGDSLRYYYAN,GRNNRHS,SSRDSSGFQVM,3.13,3/3
EGDQLRYYYDN,GFNNRPS,SSRDSSGFQVF,3.99,2/3
EGDTLRYYYAN,GKNNRPS,SSCSSSGFQVF,4.87,1/3
EGDSLRVYYAN,GKNNRMS,SVRDSSGFQVF,4.14,2/3

Background: pairings of library AAYL52 with three empty control strains gave a value in 28% of cases (median 3.91, 5th percentile 2.90). Values in that range, when seen in few replicates, are hard to tell from nonspecific mating.

Data: MIT Lincoln Laboratory AlphaSeq set, Engelhart et al. 2022, doi:10.1038/s41597-022-01779-4, as distributed in FLAb.